Target: T1, NDH-2 (type II NADH:quinone oxidoreductase) (Caldalkalibacillus thermarum, UniProt F5L3B8)
T1 construct: gene CathTA2_0279
T1 sequence (F5L3B8 1-399): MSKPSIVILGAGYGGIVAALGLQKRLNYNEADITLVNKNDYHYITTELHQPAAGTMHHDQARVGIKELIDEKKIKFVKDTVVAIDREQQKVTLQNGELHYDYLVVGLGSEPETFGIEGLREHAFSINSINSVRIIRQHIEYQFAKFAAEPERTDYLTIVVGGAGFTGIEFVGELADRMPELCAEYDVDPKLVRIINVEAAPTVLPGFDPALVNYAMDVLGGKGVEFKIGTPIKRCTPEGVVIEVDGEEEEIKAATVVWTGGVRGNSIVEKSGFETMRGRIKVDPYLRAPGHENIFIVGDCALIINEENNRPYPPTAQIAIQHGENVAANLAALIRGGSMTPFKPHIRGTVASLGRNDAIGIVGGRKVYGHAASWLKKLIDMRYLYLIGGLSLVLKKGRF

Cc1cc2nc3c(=O)[nH]c(=O)nc-3n(C[C@H](O)[C@H](O)[C@H](O)COP(=O)(O)OP(=O)(O)OC[C@H]3O[C@@H](n4cnc5c(N)ncnc54)[C@H](O)[C@@H]3O)c2cc1C [FAD]
crystal structure; flavin absorbance spectra: overview of the structure of C. thermarum NDH-2, showing the FAD and both substrates bound
